From PMC7955166 come the findings set out here.

The test has as its target MBP-tagged CYRI-B wild-type (mouse) (UniProt Q921M7). As to the kind of experiment: pull-down; MBP-tagged CYRI-B wild-type or mutants immobilised on MBP beads; purified GST-tagged Rac1 Q61L or Q61L S41A in solution; blot, two independent experiments quantified.

For “GST-tagged Rac1 Q61L S41A (from UniProt P63000 1-192) (enzyme)”, the percent loss of binding against Rac1 Q61L worked out at 30%.
